## AlphaSeq binding of Ab-14 heavy chain variants to a spike HR2 peptide

From the AlphaSeq antibody data of Engelhart et al. 2022 (doi:10.1038/s41597-022-01779-4), copy in the FLAb collection.

Target peptide (SARS-CoV-2 spike, HR2 region): PDVDLGDISGINAS

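The parent was found by panning a naive human phage display library on the peptide. In library AAYL49, one, two or three CDR residues were substituted; doubles and triples were drawn at random. The assay is AlphaSeq: two haploid yeast populations carry antibody and antigen on their surface. Pairs that bind mate more often; barcode pairs of the diploids are counted by sequencing. Each replicate has its own calibration line, from reference interactions of the BCL2 family. Each pool was mated in three replicate cultures.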

Parent scFv Ab-14: VH joined to VL by a (GGGGS)3 linker. Changes lie in the heavy chain CDRs alone.
VH: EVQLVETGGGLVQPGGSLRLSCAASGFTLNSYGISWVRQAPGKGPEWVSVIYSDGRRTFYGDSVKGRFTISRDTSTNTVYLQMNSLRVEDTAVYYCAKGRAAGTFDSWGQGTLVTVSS
VL: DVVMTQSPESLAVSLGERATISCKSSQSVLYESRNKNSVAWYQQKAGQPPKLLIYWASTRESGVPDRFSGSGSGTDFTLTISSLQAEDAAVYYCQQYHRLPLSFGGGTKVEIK

Substitutions are numbered in sequence along the VH above, starting at 1 (not Kabat). Numbers give log10(Kd / nM), so 0 is 1 nM and 3 is 1 µM. Smaller is tighter. Where no diploid with the target was found in that replicate, the entry reads "ND": below detection, most likely a poor binder, though not proof of it. Three control strains display no target. For library AAYL49, 15% of the pairings with them gave a signal, with a median of 4.06 and one signal in twenty below 2.83, so weak values seen in few replicates may be background. The control count says in how many pairings with the empty strains this scFv gave a signal, with their mean in brackets.

changes,log10 Kd (nM) by replicate,signal with controls
Y32Q G33N Y60P,ND ND ND,1 of 9 (3.61)
F27I G103W T104W,ND ND ND,1 of 9 (4.90)
S31F I34R F59P,ND ND ND,3 of 9 (3.79)
F59D G103H S107I,ND ND ND,0 of 9
R57Y G99V S107A,4.58 ND ND,7 of 9 (5.15)
S31W D54L G55K,ND ND ND,0 of 9
Y32Q S107G,ND ND ND,0 of 9
S35L V50T R57P,ND ND ND,0 of 9
G26N L29W D62W,ND ND ND,2 of 9 (2.48)
F27G Y52P F105E,ND ND 4.81,1 of 9 (2.57)
G26K T104S,2.11 2.02 2.43,3 of 9 (3.86)
S31K D54A T104Y,ND ND ND,0 of 9
V64C G99W T104V,ND 2.03 1.86,2 of 9 (2.47)
L29C R100I T104E,4.67 ND ND,1 of 9 (4.96)
I34G G55S F105D,5.63 3.55 ND,6 of 9 (4.60)
S31K K65G G103S,5.31 ND ND,0 of 9
S63M V64P R100Q,ND ND ND,0 of 9
L29H K65R R100V,ND ND ND,2 of 9 (4.36)
G55K V64M G99C,ND 4.41 3.75,5 of 9 (4.49)
S35V V50Y T104I,ND ND ND,0 of 9
F27S D62V G103P,ND ND ND,1 of 9 (3.08)
F27R G55Y V64M,ND ND ND,0 of 9
S35N R57W,5.08 ND ND,2 of 9 (3.56)
I34W T58E F59P,ND ND 5.86,2 of 9 (3.84)
G26W F59R A102T,ND ND ND,1 of 9 (4.04)
V50E F59D A101K,ND ND ND,0 of 9
D62R,ND 1.85 2.20,1 of 9 (2.92)
S53C A101I G103T,ND ND 4.52,0 of 9
S53L D62F,ND ND ND,0 of 9
T28K S31Y A101C,1.64 3.20 2.01,0 of 9

From the list, the first 2 with no signal in any replicate:

{"changes": "Y32Q G33N Y60P", "log10 Kd (nM) by replicate": "ND ND ND", "signal with controls": "1 of 9 (3.61)"}
{"changes": "F27I G103W T104W", "log10 Kd (nM) by replicate": "ND ND ND", "signal with controls": "1 of 9 (4.90)"}

For reference, the parent read 0.65 as the reference entry and 4.11 (one replicate of three) as a member of this library.